Only a part is listed here, and it is no random draw. The source made the active and inactive calls. Rule as the data show it: active = activation mostly above about 9.5% (no sharp cut-off); inactive = mostly below about 7.6%.
target: 5-hydroxytryptamine receptor 5A (Homo sapiens) (UniProt P47898); assay: HTR5A agonists in luminescence cell assay, primary screen, counter-screen for OPRM1-OPRD1 heterodimer agonist project, full-deck HTS (AID 504692); conditions: cell-based, at 9.3 µM, stronger effect = higher value;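 also: 0% = cells with vehicle only and 100% = reference agonist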

By UniProt entry, the sequences of proteins in these tests, tags left out.
UniProt P47898, whole entry, looked up: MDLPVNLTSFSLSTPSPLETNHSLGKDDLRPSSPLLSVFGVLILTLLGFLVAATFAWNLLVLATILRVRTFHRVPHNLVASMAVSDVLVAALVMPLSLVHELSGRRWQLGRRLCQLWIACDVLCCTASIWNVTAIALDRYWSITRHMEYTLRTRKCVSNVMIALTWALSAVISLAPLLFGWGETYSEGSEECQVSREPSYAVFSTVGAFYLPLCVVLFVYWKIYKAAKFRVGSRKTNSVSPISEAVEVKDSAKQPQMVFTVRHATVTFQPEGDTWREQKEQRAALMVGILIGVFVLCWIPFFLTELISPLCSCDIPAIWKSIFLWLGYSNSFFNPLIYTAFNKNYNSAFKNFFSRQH

| SMILES | activation |
| --- | --- |
| Cn1c(=O)c2c(ncn2CC(=O)Nc2ccccc2)n(C)c1=O | inactive: -11.9% |
| Nc1ccccc1CNc1nc(NCCO)nc2c1ncn2CCN1CCOCC1 | inactive: -7.14% |
| N=c1n(CCN2CCCCC2)c2ccccc2n1CC(O)c1ccco1 (stereo not given) | inactive: -2.44% |
| CC#CCCC(=O)N1C=Cc2ccccc2C1C#N (stereo not given) | inactive: -1.53% |
| CC(=O)N1C2C3N(C(C)=O)C1C1N(C(C)=O)C(C(N1C(C)=O)N3C(C)=O)N2C(C)=O | inactive: 2.2% |
| Cn1ncc([N+](=O)[O-])c1C(=O)Nc1nc2ccccc2n1CCN1CCCCC1 | inactive: -4.84% |
| O=[N+]([O-])c1cccc2n[nH]nc12 | inactive: 0.75% |
| COC(=O)c1sccc1NC(=O)Cn1cnc2c1c(=O)n(C)c(=O)n2C | inactive: -5.61% |
| Cn1c(=O)[nH]c(=O)c2c1nc1n2CCN1Cc1ccccc1 | inactive: 1.16% |
| N#CCCNC(=O)Cn1c(COc2ccc(Cl)cc2)nc2ccccc21 | inactive: 3.11% |
| Cc1ccc(C)c(CN2CCC(n3nnc4cc(F)ccc43)CC2)c1 | inactive: -0.1% |
| Nc1nonc1-c1nc2ccccc2n1CC(=O)N1CCCCC1 | inactive: -1.31% |
| CCOc1ccccc1OCC(=O)NNC(=O)Cn1cnc2c1c(=O)n(C)c(=O)n2C | inactive: 1.38% |
| Cc1ccccc1Cn1c(=O)c2c(nc3n2CCN3Cc2ccco2)n(C)c1=O | inactive: 3.38% |
| CC1CCCCC1NC(=O)Cn1cnc2c1c(=O)n(C)c(=O)n2C (stereo not given) | inactive: -2.38% |
| Cc1nc2ccccc2n1CC(=O)N/N=C/c1cccs1 | inactive: -0.83% |
| CSCC[C@H](NC(=O)N1CCn2c1nc1ccccc12)C(=O)N[C@H](Cc1ccccc1)C(=O)O | inactive: 8.1% |
| COC(=O)c1ccccc1NC(=O)Cn1cnc2cc(C)c(C)cc21 | inactive: -2.39% |
| Cc1ccc(NP(=O)(Oc2ccccc2)Oc2ccccc2)nc1 | inactive: 5.52% |
| CC1CC(C)CN(C(=O)Cn2c(-c3nonc3N)nc3ccccc32)C1 (stereo not given) | inactive: 3.56% |
| O=[N+]([O-])c1ccc(NC2CCN(Cc3ccccc3)CC2)c([N+](=O)[O-])c1 | inactive: 0.3% |
| Cc1csc2ncnc(NC3CCN(Cc4ccccc4)CC3)c12 | inactive: 3.08% |
| Cn1c(=O)[nH]c(=O)c2c1nc(CN1CCN(Cc3ccccc3)CC1)n2CC(N)=O | inactive: -1.88% |

| SMILES | activation |
| --- | --- |
| N=c1n(CCN2CCCCC2)c2ccccc2n1CC(O)COc1ccccc1 (stereo not given) | inactive: -5.55% |
| COC(=O)c1ccc(NC(=O)Cn2c(-c3nonc3N)nc3ccccc32)cc1 | inactive: 1.86% |
| Cc1ccc(OCC(O)Cn2c(=N)n(CCN3CCOCC3)c3ccccc32)cc1 (stereo not given) | inactive: -3.67% |
| O=[N+]([O-])c1cc([N+](=O)[O-])c(CCNc2ccccc2)c([N+](=O)[O-])c1 | inactive: -1.99% |
| CCc1nc2c(n1)c1c(non1O)c1c2no[n+]1[O-] | inactive: -2.82% |
| Cn1c(=O)c2c(ncn2CC(=O)NC(C)(C)C)n(C)c1=O | inactive: 3.88% |
| CCN(Cc1ccccc1)C(=O)Cn1c(C(C)O)nc2ccccc21 (stereo not given) | inactive: 0.87% |
| COc1ccc(CN(C)C(=O)Cn2cnc3c(NCc4ccccc4)ncnc32)cc1OC | inactive: -1.87% |
| CC(C)(C)C(=O)NC(Sc1ccncn1)C(Cl)(Cl)Cl (stereo not given) | inactive: 0.83% |
| CSCC[C@H](NC(=O)N1CCn2c1nc1ccccc12)C(=O)N[C@@H](C(=O)O)c1ccccc1 | inactive: 0.74% |
| CCCCc1nc2ccccc2n1CC(=O)NN | inactive: -2.71% |
| c1ccc(CN2CCC(Nc3ncnc4sccc34)CC2)cc1 | inactive: 0.64% |
| O=[N+]([O-])c1ccc2c(c1)nc1n2CCN(CC2CCCO2)C1 (stereo not given) | inactive: -3.28% |
| CN(C)C(=O)Cn1c(=O)n(S(=O)(=O)c2ccccc2)c2ccccc21 | inactive: 3.41% |
| C/C(=N\NC(=O)Cn1cnc2ccccc21)c1cccs1 | inactive: -6.8% |
| CSc1nc2ccccc2n1CC(=O)N1CCCCC1 | inactive: -9.2% |
| Cn1c(=O)c2c(ncn2CC(=O)Nc2ccc(N3CCOCC3)cc2)n(C)c1=O | inactive: 6.03% |
| C/C(=N\NC(=O)Cn1c(-c2ccccn2)nc2ccccc21)c1ccccc1 | inactive: -4.36% |
| CC(C)OC(=O)c1ccc(NC(=O)Cn2c(-c3nonc3N)nc3ccccc32)cc1 | inactive: 2.67% |
| Cc1ccc2c(c1)C1CN(C)CCC1N2C(=O)Nc1cccc(C(F)(F)F)c1 (stereo not given) | inactive: -2.4% |
| CSCC[C@H](NC(=O)N1CCn2c1nc1ccccc12)C(=O)NCc1ccco1 | inactive: 0.01% |
| CC(C)(C)NC(=O)Cn1c(SCC(=O)N2CCCCCC2)nc2ccccc21 | inactive: 7.6% |
| O=[N+]([O-])c1ncn(CCn2ncnc2[N+](=O)[O-])n1 | inactive: 0.4% |

| SMILES | activation |
| --- | --- |
| Cn1c(=O)c2ncn(CC(=O)Nc3nc(-c4ccc(Cl)cc4)cs3)c2n(C)c1=O | inactive: 2.34% |
| CCCn1c(=O)[nH]c(=O)c2c1nc(-c1ccc(OC(F)F)cc1)n2CCN1CCOCC1 | inactive: 3.25% |
| CCOc1ccc(NC(=O)CN(C)C(=O)Cn2cnc3c2c(=O)n(C)c(=O)n3C)cc1OCC | inactive: 2.86% |
| CC(C)C[C@H](NC(=O)N1CCn2c1nc1ccccc12)C(=O)NCC1CCCO1 (stereo not given in full) | inactive: -2.96% |
| CSc1nc(N)nc2c1ncn2CC(=O)N1CCN(c2ccccn2)CC1 | inactive: 0.29% |
| CC1CCCN(Cc2nc3c(c(=O)n(C)c(=O)n3C)n2CC(N)=O)C1 (stereo not given) | inactive: 3.21% |
| O=S(=O)(Cc1ccccc1)N1CCn2c(nc3ccccc32)C1 | inactive: -1.74% |
| CCN(CC)S(=O)(=O)c1ccc(NC2CCN(Cc3ccccc3)CC2)nc1 | inactive: -1.31% |
| CN1CCN(c2nc3c(c(=O)n(C)c(=O)n3C)n2CC(N)=O)CC1 | inactive: 5.77% |
| COC(=O)C1(C)COP(=O)(Nc2ccccc2)OC1 (stereo not given) | inactive: -0.33% |
| COc1ccc(Cc2nc3ccccc3n2CC(=O)N/N=C/c2ccc(O)cc2)cc1OC | inactive: -0.21% |
| O=[N+]([O-])c1cccc(NC2=NCC(CBr)S2)c1 (stereo not given) | inactive: -0.84% |
| CC(C)Sc1nc2ccccc2n1CC(N)=O | inactive: -2.26% |
| CCOC(=O)N1CCN(c2c(NC3CCN(Cc4ccccc4)CC3)c(=O)c2=O)CC1 | inactive: -3.21% |
| CN(C)C1(c2nnnn2-c2ccc(Cl)cc2)CCCCC1 | inactive: 8.4% |
| O=C(Cn1cnc2ccccc21)N1CCN(S(=O)(=O)c2ccccc2)CC1 | inactive: 0.57% |
| Cc1nn(CC(=O)Nc2ccc3c(c2)nc2n3CCN(C3CCCCC3)C2)c(=O)c2ccccc12 | inactive: 5.91% |
| O=[N+]([O-])c1ccc(NC2CCN(Cc3ccccc3)CC2)c2ccncc12 | inactive: 6.6% |
| Cc1noc(C)c1S(=O)(=O)N(CC(=O)N1CCn2c1nc1ccccc12)c1ccc(C(C)C)cc1 | inactive: -1.66% |
| O=C(c1ccccc1Br)N1CCn2c1nc1ccccc12 | inactive: -1.36% |
| Cc1cccc(NC(=O)Cn2c(/C=C/c3ccccc3)nc3ccccc32)c1 | inactive: -2.08% |
| O=C(O)CNc1ccc([As](=O)(O)O)cc1 | inactive: 0.84% |
| COC(=O)c1ccc(N2C(=O)CC(N3CCC(n4c(=O)[nH]c5ccccc54)CC3)C2=O)cc1 (stereo not given) | inactive: 7.99% |

| SMILES | activation |
| --- | --- |
| O=C1CCC(=O)N1c1ccc(NC2CCN(Cc3ccccc3)CC2)c([N+](=O)[O-])c1 | inactive: -1.98% |
| COc1cccc(CNC(=O)CCNC(=O)N2CCn3c2nc2ccccc23)c1 | inactive: -1.21% |
| CCc1nc2ccccc2n1CC(=O)NC1CCS(=O)(=O)C1 (stereo not given) | inactive: 0.31% |
| COc1cccc(NC(=O)Cn2c(-c3cncs3)nc3ccccc32)c1 | inactive: -2.26% |
| Cc1cc(NC(=O)CSc2nc3ccccc3n2CC(=O)N2CCCCC2)no1 | inactive: -0.13% |
| Cc1ccc(-c2csc(N3CCN(c4cc5c(cc4Cl)nc(C)n5CCN4CCCCC4)CC3)n2)cc1 | inactive: 8.4% |
| Cn1c(=O)c2c(nc(CN3CCN(c4ccc(F)cc4)CC3)n2CCN2CCOCC2)n(C)c1=O | inactive: 1.37% |
| COc1cc(NC(=O)Cn2c(-c3cncs3)nc3ccccc32)cc(OC)c1OC | inactive: 1.49% |
| O=C(CCCN1CCC2(CC1)C(=O)NCN2c1ccccc1)c1ccc(F)cc1 | inactive: 0.68% |
| COC(=O)C[C@H](NC(=O)Cn1cnc2c(SC)nc(N)nc21)C(=O)OC | inactive: 3.96% |
| Cn1c(=O)c2c(nc(NCCc3ccccc3)n2CC(=O)NCCc2ccccc2)n(C)c1=O | inactive: 3.51% |
| COc1ccc(Cc2nnc(NC(=O)Cn3cnc4c3c(=O)n(C)c(=O)n4C)s2)cc1 | inactive: 3.28% |
| CC(C)Oc1cccnc1N(C)C1CCN(Cc2ccccc2)CC1 | inactive: -2.62% |
| CCN(CC)CCn1c(=N)n(CC(O)c2ccco2)c2ccccc21 (stereo not given) | inactive: 4.92% |
| Cc1ccc2c(c1)C1CN(C)CCC1N2CC(=O)N(C)c1ccccc1 (stereo not given) | inactive: 6.23% |
| N#CCC(=O)N/N=C\c1ccccc1OC/C=C/c1ccccc1 | inactive: -3.6% |
| CCOC(=O)Nc1ccc2c(c1)nc1n2CCN(CCOC)C1 | inactive: 6.27% |
| COCCCNC(=O)Cn1cnc2c(OCc3ccccc3)ncnc21 | inactive: 3.78% |
| Cc1ccc2c(c1)C1CN(C)CCC1N2C(=O)c1cccnc1Cl (stereo not given) | inactive: -7.17% |
| CSc1nc(N)nc2c1ncn2CC(=O)N[C@H](CO)Cc1c[nH]c2ccccc12 | inactive: -3.07% |
| Cc1ccc2c(c1)C1CN(C)CCC1N2C(=O)Nc1ccc(Cl)cc1 (stereo not given) | inactive: 3.69% |

— PubChem BioAssay AID504692 (The Scripps Research Institute Molecular Screening Center, 2011)
